Experimental data published in US20080058324A1, “Alpha-Keto Carbonyl Calpain Inhibitors” (SANTHERA PHARMACEUTICALS (SCHWEIZ) AG, priority 2004, published 2008).

Sequences of proteins named here, by UniProt entry; tags and fusion partners are left off. Residues count along the entry.
UniProt G1T4Q9, 60-263 limits assumed: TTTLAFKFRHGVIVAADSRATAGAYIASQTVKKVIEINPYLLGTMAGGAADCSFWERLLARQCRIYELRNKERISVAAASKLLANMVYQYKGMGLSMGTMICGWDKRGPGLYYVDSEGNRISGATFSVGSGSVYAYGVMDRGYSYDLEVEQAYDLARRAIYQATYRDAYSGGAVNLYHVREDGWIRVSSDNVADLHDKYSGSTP

Experiments:
[1] = tested on: cellular calpains in C2C12 myoblasts; experiment: Calpain Inhibition Assay in C2C12 Myoblasts; conditions: read-out: Calp I IC50 Myoblast
20S Proteasome = 20S Proteasome (Oryctolagus cuniculus, UniProt G1T4Q9); experiment: 20S Proteasome Assay; conditions: read-out: 20S Prot IC50
mdx mouse = mdx mouse model for Duchenne Muscular Dystrophy, longterm treatment; conditions: 3 week old mdx mice, treatment period of 4 weeks

## CC(C)[C@H](NC(=O)OCc1ccccc1)C(=O)N[C@H](C=O)Cc1ccccc1
[1]
  IC50: 40 µM
20S Proteasome
  IC50: > 1 µM
Mdx mouse
  activity in the mdx mouse model: only weak activity
